{"sequences": {"note": "Sequences of proteins named here, by UniProt entry; tags and fusion partners are left off. A change or cut given only in a name is not applied to a line headed by its entry. Residues count along the entry.", "UniProt P08172, whole entry": "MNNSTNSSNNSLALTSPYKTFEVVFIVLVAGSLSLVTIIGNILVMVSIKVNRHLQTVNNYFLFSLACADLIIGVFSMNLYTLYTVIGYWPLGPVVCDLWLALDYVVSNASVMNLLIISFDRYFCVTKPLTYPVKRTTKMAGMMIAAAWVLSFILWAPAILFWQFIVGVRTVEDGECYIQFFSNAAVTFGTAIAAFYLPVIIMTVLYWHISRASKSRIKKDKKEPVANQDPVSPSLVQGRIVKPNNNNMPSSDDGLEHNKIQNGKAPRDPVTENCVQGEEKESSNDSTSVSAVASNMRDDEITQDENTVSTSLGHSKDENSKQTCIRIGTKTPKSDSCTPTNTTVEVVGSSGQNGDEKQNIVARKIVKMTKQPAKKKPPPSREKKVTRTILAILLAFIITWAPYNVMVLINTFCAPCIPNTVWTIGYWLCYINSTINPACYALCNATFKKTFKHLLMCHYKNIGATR", "UniProt Q8VH26, 1-587": "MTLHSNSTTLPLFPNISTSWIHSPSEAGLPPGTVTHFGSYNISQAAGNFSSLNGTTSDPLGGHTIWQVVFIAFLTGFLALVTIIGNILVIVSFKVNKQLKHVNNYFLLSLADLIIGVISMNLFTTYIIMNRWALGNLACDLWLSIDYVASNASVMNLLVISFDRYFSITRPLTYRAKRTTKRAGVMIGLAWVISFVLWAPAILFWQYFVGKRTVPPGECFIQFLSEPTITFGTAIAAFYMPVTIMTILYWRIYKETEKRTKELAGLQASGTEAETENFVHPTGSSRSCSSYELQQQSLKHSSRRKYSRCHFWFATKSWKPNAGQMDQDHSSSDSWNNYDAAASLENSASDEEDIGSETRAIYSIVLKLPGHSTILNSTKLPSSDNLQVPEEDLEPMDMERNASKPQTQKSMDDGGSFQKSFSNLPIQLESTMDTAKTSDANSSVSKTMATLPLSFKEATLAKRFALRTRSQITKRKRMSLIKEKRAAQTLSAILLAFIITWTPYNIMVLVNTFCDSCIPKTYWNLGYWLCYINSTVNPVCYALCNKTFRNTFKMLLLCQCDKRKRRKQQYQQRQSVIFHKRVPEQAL"}, "source": "ChEMBL document CHEMBL1126608", "key": {"[1]": {"biological_target": "Muscarinic acetylcholine receptor (Homo sapiens) (UniProt P20309+P08173+P11229+P08172+P08912)", "settings": "Cavia porcellus"}, "[2]": {"biological_target": "Muscarinic acetylcholine receptor M2 (Homo sapiens) (UniProt P08172)", "test": "Antagonist activity against muscarinic M2 receptor from guinea pig atria", "format": "functional", "settings": "Cavia porcellus; target entry is the homologue from another species", "summary_of_the_method": "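Isolated guinea pig right atria in Krebs-Henseleit buffer; cumulative carbachol concentration-rate response curves before and after at least three increasing antagonist concentrations (5-min preincubation). Responses as % of maximal carbachol-induced rate inhibition without antagonist.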"}, "[3]": {"biological_target": "Muscarinic acetylcholine receptor M3 (Cavia porcellus) (UniProt Q8VH26)", "test": "Antagonist activity against muscarinic M3 receptor from guinea pig ileum", "format": "functional, tissue-based", "summary_of_the_method": "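Longitudinal guinea pig ileum strips suspended in oxygenated Krebs buffer; carbachol concentration-response curves with or without at least three increasing antagonist concentrations (5-min preincubation). Contraction as % of maximal carbachol response without antagonist.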"}}, "data": [{"molecule": "O=C(CN1CCN(Cc2ccccc2)CC1)C(O)(c1ccccc1)C1CCC1", "note": "(stereo not drawn);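 as to ID50: in vivo guinea pig assay: antimuscarinic effect measured as reduced salivation after carbachol stimulation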", "values": [{"measurement": "ID50", "setting": "[1]", "result": 14.7, "unit": "mg/kg"}, {"measurement": "Kb", "setting": "[2]", "result": 0.06, "unit": "µM"}, {"measurement": "Kb", "setting": "[3]", "result": 0.015, "unit": "µM"}]}]}
